Experimental findings from the NIST ThermoML archive (doi:10.1021/acs.jced.9b00445) are described below.

The conditions of data set [1]: Crystal; DSC.
Data set [2] in a line: Molar enthalpy of transition or fusion. As to conditions: Crystal; DSC.

Numbers after ± are expanded uncertainties.

For `Cc1ccccc1S(N)(=O)=O` [o-toluenesulfonamide], the Triple point temperature in data set [1] is 427.35 ± 1.2 K. Besides, in data set [2], the “Molar enthalpy of transition or fusion” value turned out to be 7.03 ± 0.454 kcal/mol.
